Our source for the inhibition values is PubChem BioAssay AID1217 (Sanford-Burnham Center for Chemical Genomics, 2008).

SMILES strings stand for the structures. Only a part is listed here, and it is no random draw. Calls of active or inactive are those of the source.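 How the source made its calls: active means primary screen inhibition at 20 µM above a set limit (cut at about 50% in these data); inactive means the rest.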

This assay relates to diaphorase (Clostridium kluyveri). As to the kind of experiment: diaphorase inhibitors and chemical oxidizers, primary screen, counter-screen for diaphorase-coupled primary assays, biochemical, uHTS, resorufin fluorescence (AID 1217).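 Further: plate controls were DMSO with full reaction for no effect and wells lacking NADH for full effect.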 The settings on record: diaphorase resazurin-to-resorufin fluorescence, NADH, 16 min; at 20 µM; stronger effect = higher value; bacterial (C. kluyveri) enzyme, not human. Summed up: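 System: Bacterial diaphorase enzyme (C. kluyveri) | Incubation: 16-min room-temperature incubation before reading | Benchmarks: No-NADH positive control and DMSO neutral control | Measured by: Resorufin fluorescence 544/590 nm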
(Counterscreens check selectivity or assay interference.)
In the case of `CCOc1ncccc1C(=O)NCC1(N2CCOCC2)CCCCC1`, the inhibition – broadly, the relative decrease from the control value, in per cent – was inactive: 6.4%.

On to `CC(C)(C)OC(=O)N1CCC(Nc2ccccc2)CC1`, for which the inhibition was inactive: 4.2%. Next, `COc1cc(OC)cc(C(=O)NCC2(N3CCOCC3)CCCCC2)c1`: inactive: 4.8%.

Consider `CCC(CO)(C(=O)OC1CN2CCC1CC2)c1ccccc1` (stereo not given), for which the inhibition is inactive: 11%. Next, `Fc1ccccc1NC1CCN(Cc2ccccc2)CC1`: inactive: 17.5%; `CCN1CCC(Nc2cccc(F)c2)CC1`: inactive: 15.7%; `CN(C)c1ccc(C(=O)NCC2(N3CCCCC3)CCCCC2)cc1`: inactive: 4.6%. Next, `N#Cc1ccc(C(=O)NCC2(N3CCCCC3)CCCCC2)cc1`: inactive: 1.1%; `c1ccc(CN2CCC(Nc3ccccc3)CC2)cc1`: inactive: 17.5%; `COc1ccc(C(=O)NCC2(N3CCOCC3)CCCCC2)cc1OC`: inactive: 4.5%. Turning to `N/C(=N\O)c1c(N)no[n+]1[O-]`, the inhibition is inactive: 2.2%. Next, `O=C(OC1CN2CCC1CC2)C1c2ccccc2C=Cc2ccccc21` (stereo not given): inactive: -3.4%.

Turning to `CC(C)c1ccc(NC2CCN(C(=O)OC(C)(C)C)CC2)cc1`, the inhibition is inactive: 19.6%. As to `CN(C)c1cccc(C(=O)NCC2(N3CCCCC3)CCCCC2)c1`, the inhibition is inactive: 8.9%. As for `COc1ccc(CN(CCCl)CCCl)cc1Cl`, the inhibition is inactive: -8.7%. Next, `N#CC1(Nc2ccccc2)CCN(CCc2ccccc2)CC1`: inactive: 3.6%. Next, `O=C(NCC1(N2CCCCC2)CCCCC1)c1cccc([N+](=O)[O-])c1`: inactive: 1.4%; `O=C(NCC1(N2CCOCC2)CCCCC1)c1cc(=O)[nH]c2ccccc12`: inactive: 2.9%; `CN1CCN(CCOC(=O)C(O)(c2ccccc2)c2ccccc2)CC1`: inactive: 14.9%. Next, `COc1ccc(NC2CCN(C(=O)OC(C)(C)C)CC2)cc1`: inactive: 7.4%. With `COc1ccc(NC2CCN(CCc3ccccc3)CC2)c(OC)c1`, the inhibition was inactive: 30.9%. Next, `COc1ccc(C(=O)NCC2(N3CCCCC3)CCCCC2)c(OC)c1OC`: inactive: -12.5%. In the case of `O=C(NCC1(N2CCOCC2)CCCCC1)c1cc2ccccc2o1`, the inhibition is inactive: 13.8%. Next, `O=C(OC1CN2CCC1CC2)C1c2ccccc2Oc2ccccc21` (stereo not given): inactive: 16.1%; `CCOC(=O)N1CCC(Nc2ccc(OC)cc2)CC1`: inactive: 4.6%.
